Laboratory results as given in patent US20230014151A1, “COMBINATION ANTIVIRAL THERAPY FOR MEASLES” (The Trustees of Columbia University in the City of New York, priority 2019, published 2023).

Test system: MeV wild-type
Test: MeV infection of human motor neurons, wild-type virus
Settings: 8 days of infection

## CC[C@H](C)[C@H](NC(=O)[C@H](C)NC(=O)[C@H](CC(N)=O)NC(=O)CNC(=O)[C@H](CC(C)C)NC(=O)[C@H](CC(N)=O)NC(=O)[C@@H](NC(=O)CNC(=O)[C@@H](NC(=O)[C@H](CC(=O)O)NC(=O)[C@H](CC(C)C)NC(=O)[C@H](CCCNC(=N)N)NC(=O)[C@H](CCC(=O)O)NC(=O)[C@H](CC(C)C)NC(=O)[C@H](CO)NC(=O)[C@@H](NC(=O)[C@@H]1CCCN1C(=O)[C@@H]1CCCN1C(C)=O)[C@@H](C)CC)C(C)C)[C@@H](C)O)C(=O)N[C@@H](C)C(=O)N[C@@H](CCCCN)C(=O)N[C@@H](CC(C)C)C(=O)N[C@@H](CCC(=O)O)C(=O)N[C@@H](CC(=O)O)C(=O)N[C@@H](C)C(=O)N[C@@H](CCCCN)C(=O)N[C@@H](CCC(=O)O)C(=O)N[C@@H](CC(C)C)C(=O)N[C@@H](CC(C)C)C(=O)N[C@@H](CCC(=O)O)C(=O)N[C@@H](CO)C(=O)N[C@@H](CO)C(=O)N[C@@H](CC(=O)O)C(=O)N[C@@H](CCC(N)=O)C(=O)N[C@H](C(=O)N[C@@H](CC(C)C)C(=O)N[C@@H](CCCNC(=N)N)C(=O)NCC(=O)N[C@@H](CO)C(=O)NCC(=O)N[C@@H](CO)C(=O)NCC(=O)N[C@@H](CSC1CC(=O)N(CCCC(=O)NCCOCCOCCOCCOCCC(=O)NCCN(CCNC(=O)CCOCCOCCOCCOCCNC(=O)CCCN2C(=O)CC(SC[C@H](NC(=O)CNC(=O)[C@H](CO)NC(=O)CNC(=O)[C@H](CO)NC(=O)CNC(=O)[C@H](CCCNC(=N)N)NC(=O)[C@H](CC(C)C)NC(=O)[C@@H](NC(=O)[C@H](CCC(N)=O)NC(=O)[C@H](CC(=O)O)NC(=O)[C@H](CO)NC(=O)[C@H](CO)NC(=O)[C@H](CCC(=O)O)NC(=O)[C@H](CC(C)C)NC(=O)[C@H](CC(C)C)NC(=O)[C@H](CCC(=O)O)NC(=O)[C@H](CCCCN)NC(=O)[C@H](C)NC(=O)[C@H](CC(=O)O)NC(=O)[C@H](CCC(=O)O)NC(=O)[C@H](CC(C)C)NC(=O)[C@H](CCCCN)NC(=O)[C@H](C)NC(=O)[C@@H](NC(=O)[C@H](C)NC(=O)[C@H](CC(N)=O)NC(=O)CNC(=O)[C@H](CC(C)C)NC(=O)[C@H](CC(N)=O)NC(=O)[C@@H](NC(=O)CNC(=O)[C@@H](NC(=O)[C@H](CC(=O)O)NC(=O)[C@H](CC(C)C)NC(=O)[C@H](CCCNC(=N)N)NC(=O)[C@H](CCC(=O)O)NC(=O)[C@H](CC(C)C)NC(=O)[C@H](CO)NC(=O)[C@@H](NC(=O)[C@@H]3CCCN3C(=O)[C@@H]3CCCN3C(C)=O)[C@@H](C)CC)C(C)C)[C@@H](C)O)[C@@H](C)CC)[C@@H](C)CC)C(=O)O)C2=O)CCO[C@H]2CC[C@@]3(C)C(=CC[C@H]4[C@@H]5CC[C@H]([C@H](C)CCCC(C)C)[C@@]5(C)CC[C@@H]43)C2)C1=O)C(=O)O)[C@@H](C)CC (some centres unmarked) [[HRC450-485-peg4]2-chol]
Listed as MV HRC4
  MeV wild-type infection and spread in human motor neurons: block MeV wild-type infection in human motor neurons
Listed as MeV HRC4
  MeV wild-type infection and spread in human motor neurons: block the spread of virus in motor neurons
